# Results: article PMC3834829 (2013)
# B1: LexA-BCL11A-(651–670) [not stated] / AAD-TLX-LBD-(100–385) [not stated] (parent complex)
# chain 1: NTENVYSQWLAGYAASRQLK
# chain 2: RKQVALYFRGHKEENGAAAHFPSAALPAPAFFTAVTQLEPHGLELAAVSTTPERQTLVSLAQPTPKYPHEVNGTPMYLYEVATESVCESAARLLFMSIKWAKSVPAFSTLSLQDQLMLLEDAWRELFVLGIAQWAIPVDANTLLAVSGMNGDNTDSQKLNKIISEIQALQEVVARFRQLRLDATEFACLKCIVTFKAVPTHSGSELRSFRNAAAIAALQDEAQLTLNSYIHTRYPTQPCRFGKLLLLLPALRSISPSTIEEVFFKKTIGNVPITRLLSDMYKSSDI
# B2: LexA-BCL11A-(310–325) [not stated] / AAD-TLX-LBD-(100–385) [not stated] (parent complex)
# chain 1: PPAMDFSRRLRELAGN
# chain 2: B1 chain 2
# B3: LexA-NSD1-(790–818) [not stated] / AAD-TLX-LBD-(100–385) [not stated] (parent complex)
# chain 1: SSQNHIPIEPDYKFSTLLMMLKDMHDSKT
# chain 2: B1 chain 2
# Variants of: B1
# Experiment: yeast two-hybrid; read off a plot
row,response [nmol/mg/min],Variant
1,~220,chain 1 NTENVASQWLAGYAASRQLK [chain 1 Y6A]
2,~2100,chain 1 NTENVYAQWLAGYAASRQLK [chain 1 S7A]
3,~1900,chain 1 NTENVYSAWLAGYAASRQLK [chain 1 Q8A]
4,~1800,chain 1 NTENVYSQWLAAYAASRQLK [chain 1 G12A]
5,~2000,chain 1 NTENVYSQALAGYAASRQLK [chain 1 W9A]
6,~1800,chain 1 NTENAYSQWLAGYAASRQLK [chain 1 V5A]
7,~0,chain 1 NTENVYSQWAAGYAASRQLK [chain 1 L10A]
8,~480,chain 1 NTENVYSQWLAGAAASRQLK [chain 1 Y13A]

# Variants of: B2
# Experiment: yeast two-hybrid; read off a plot
row,response [nmol/mg/min],Variant
1,~0,chain 1 PPAMDFSRRLREAAGN [chain 1 L13A]
2,~0,chain 1 PPAMDFSRRARELAGN [chain 1 L10A]
3,~1900,chain 1 PPAMDFARRLRELAGN [chain 1 S7A]
4,~980,chain 1 PPAMDFSRRLAELAGN [chain 1 R11A]
5,~0,chain 1 PPAMDASRRLRELAGN [chain 1 F6A]
6,~1300,chain 1 PPAMDFSARLRELAGN [chain 1 R8A]

# Variants of: B3
# Experiment: yeast two-hybrid; read off a plot
row,response [nmol/mg/min],Variant
1,~0,chain 1 SSQNHIPIEPDYKFSTALMMLKDMHDSKT [chain 1 L17A]
2,~0,chain 1 SSQNHIPIEPDYKASTLLMMLKDMHDSKT [chain 1 F14A]
3,~0,chain 1 SSQNHIPIEPDYKFATLLMMLKDMHDSKT [chain 1 S15A]
4,~1000,chain 1 SSQNHIPIEPDYKFSTLLAMLKDMHDSKT [chain 1 M19A]
5,~1300,chain 1 SSQNHIPIEPDYKFSTLLMMLADMHDSKT [chain 1 K22A]
6,~1400,chain 1 SSQNHIPIEPDYAFSTLLMMLKDMHDSKT [chain 1 K13A]
7,~1100,chain 1 SSQNHIPIEPDYKFSTLLMMLKAMHDSKT [chain 1 D23A]
8,~0,chain 1 SSQNHIPIEPDYKFSTLAMMLKDMHDSKT [chain 1 L18A]
9,~0,chain 1 SSQNHIPIEPDYKFSTLLMMAKDMHDSKT [chain 1 L21A]
10,~690,chain 1 SSQNHIPIEPDAKFSTLLMMLKDMHDSKT [chain 1 Y12A]
11,~210,chain 1 SSQNHIPIEPDYKFSTLLMALKDMHDSKT [chain 1 M20A]
